Target: T1, Ex-FABP (Gallus gallus, UniProt P21760)
T1 construct: made in house; host or cells: E. coli K-12 BW25113 ΔentB::kan (JW0587) (λDE3), pET21a, periplasmic secretion
Assay type: binding, chicken
Settings: ITC, TBS pH 7.4, 30°C, 5 μM lipocalin
Experimental: Experiments were carried out with a GE Healthcare Microcal VP-ITC microcalorimeter according to the manufacturer’s guidelines (Operating Instructions 28-9639-79 AA). The device consisted of a motorized injection syringe, in which the ligand was loaded, with two adiabatic cells set at 30 °C. The left cell was filled with the reference (TBS with 1.3% DMSO), whereas the right cell was filled with 5 μM lipocalin protein dissolved in the same buffer. […] Samples were degassed and pre-equilibrated at the desired temperature using a GE MicroCal ThermoVac degassing station before loading into the syringe, sample cell and reference cell.

Amino acid sequences for entries named in this document (tags omitted). Residues count along the entry.
UniProt P21760, 21-178: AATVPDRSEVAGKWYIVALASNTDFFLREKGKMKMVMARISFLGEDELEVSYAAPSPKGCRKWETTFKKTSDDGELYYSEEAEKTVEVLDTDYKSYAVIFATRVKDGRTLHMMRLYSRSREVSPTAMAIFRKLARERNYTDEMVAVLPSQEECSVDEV

salmochelin [apo-Sal (or DGE)]
Kd: Under threshold

— article PMC7242566, “The Three Lipocalins of Egg-White: Only Ex-FABP Inhibits Siderophore-Dependent Iron Sequestration by Salmonella Enteritidis” (Frontiers in Microbiology, 2020)
